Where a chain is given by its changes, count along the chain named. Names and notes keep the numbering of the source. Like-named read-outs stand apart in the source and are kept apart here. One block for each binder: values may come before it.
What was measured:
[1] = biological target: T1, human PD-L1 on cells (human); test: competition flow cytometry on SK-MEL-28 cells, 100 nM PD-1 tetramer as competitor
T1 construct: also called hPD-L1; PD-L1 on IFNγ-induced SK-MEL-28 (SKMEL28) cells

Chains of the proteins cited; added tags and fusions are not shown. Chains listed by the source or under a name are the forms on record and can include a tag or linker.
human PD-L1 on cells, one chain, as listed by the source limits assumed: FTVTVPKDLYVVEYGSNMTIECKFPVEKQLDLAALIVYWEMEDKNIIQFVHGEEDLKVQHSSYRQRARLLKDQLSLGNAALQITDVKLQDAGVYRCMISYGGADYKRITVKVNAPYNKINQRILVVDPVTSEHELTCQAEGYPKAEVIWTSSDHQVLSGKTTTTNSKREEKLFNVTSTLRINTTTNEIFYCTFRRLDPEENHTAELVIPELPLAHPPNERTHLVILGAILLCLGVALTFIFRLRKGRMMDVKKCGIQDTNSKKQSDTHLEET

[2] = biological target: T1, human PD-L1 on cells; test: competition flow cytometry on SK-MEL-28 cells; probe: 100 nM hPD-1/streptavidin-Alexa Fluor 647 tetramer
[3] = biological target: T2, recombinant biotinylated human PD-L1 ectodomain (IgV and IgC domains, […]) (human, enzymatically biotinylated (BirA) on the biotin acceptor peptide); test: SPR, biotinylated PD-L1 on streptavidin chip
T2 construct: also called biotinylated hPD-L1; biotinylated PD-L1; not shown: carboxy-terminal 8x histidine tag

[4] = biological target: T2, recombinant biotinylated human PD-L1 …; test: surface plasmon resonance, biotinylated hPD-L1 immobilized on a streptavidin chip; column head 'PD-L1 affinity'
[5] = biological target: T2, recombinant biotinylated human PD-L1 …; test: as above; remark: listed apart in the source

fold more potent antagonism than WT PD-1 [1]: 1200 fold
IC50 (read off the curve) [2]: ~8000 pM
B1: DOTA-HAC (HAC-V N91C conjugated with maleimido-mono-amide-DOTA) (designed binder)
chain: DSPDRPWNPPTFSPALLVVTEGDNATFTCSFSNTSESFHVVWHRESPSGQTDTLAAFPEDRSQPGQDARFRVTQLPNGRDFHMSVVRARRCDSGTYVCGVISLAPKIQIKESLRAELRVTERHHHHHHHH
modifications: maleimido-mono-amide-DOTA on Cys 91 (N91C)
notes: also called HAC-DOTA

dissociation half-life [3]: 42.4 min
Kd [4]: 107 pM
Kd [5]: 107 pM
B2: HAC-I PD-1 (High affinity consensus with isoleucine at position 41) (designed binder)
chain: B1 chain with V41I, C91N
notes: Engineered variant of the human PD-1 IgV domain; monomeric; also called HAC-PD-1

Kd [4]: 101 pM
Kd [5]: 101 pM
B3: G2 4-3 (designed binder)
PD-1 variant IgV domain: DSPDRPWNPPTFSPALLVVTEGDNATFTCSFSNTSESFHVIWHLESPSGQTDTLAAFPEDRSQPGQDARFRVTQLPNGRDFHMSVVRARRNDSGTYVCGVISLAPKIQIKESLRAELRVTER
notes: also called Generation 2, clone 4-3
